The values that follow come from patent US7411039B2, “GLP-2 compounds, formulations, and uses thereof” (Novo Nordisk A/S, priority 2002, dated 2008).

This series in a line: Metabolic stability of GLP-2 derivatives in vivo in pigs (terminal plasma elimination half-life T½). The note with it: pig, sc, female LYD crossbred pigs, subcutaneous injection, 0.5 nmol/kg, plasma analysed by ELISA. Here is the method:
Metabolic stability of selected GLP-2 derivatives. The degradation of GLP-2 derivatives in vivo in pigs have been studied and T½ value determined for selected GLP-2 derivatives according to the present invention (T½: Terminal plasma elimination half-life) (Table 9).
All test substances were dissolved in 20 mM phosphate buffer pH 7.4.
Female LYD crossbred pigs weighing 50-75 kg. were used. All test substances were dosed 0.5 nmol/kg. The dosing volume was approx. 1 ml per animal.
Subcutaneous injections were given at the right side of the neck approximately 7 cm from the ear and 9 cm from the middle of the neck. Injections were given with a stopper on the needle, allowing 0.5 cm of the needle to be inserted.
Blood samples were drawn from an ear vein catheter. The catheter was rinsed with heparin 50 IE/ml in physiological saline. During sampling the first ml blood drawn was discarded. Blood samples were kept on ice for no longer than 20 min. before centrifugation (4° C., 4000 rpm, 10 min). After centrifugation plasma was isolated and transferred to Micronic-tubes in duplo. The plasma samples were analysed by ELISA.
On the technique in general: ELISA stands for enzyme-linked immunosorbent assay.
As a reminder, the half-life is the time in which the quantity being followed falls by half. Higher therefore signals slow loss. `CCCCCCCCCCCC(=O)NCCCC(=O)NCCCC[C@H](NC(=O)[C@H](CC(N)=O)NC(=O)[C@H](CC(=O)O)NC(=O)[C@H](CC(C)C)NC(=O)[C@@H](NC(=O)[C@@H](NC(=O)[C@H](CC(N)=O)NC(=O)[C@H](CCSC)NC(=O)[C@H](CCC(=O)O)NC(=O)[C@H](CC(=O)O)NC(=O)[C@H](CO)NC(=O)[C@H](Cc1ccccc1)NC(=O)[C@H](CO)NC(=O)CNC(=O)[C@H](CC(=O)O)NC(=O)[C@H](C)NC(=O)[C@@H](N)Cc1c[nH]cn1)[C@@H](C)O)[C@@H](C)CC)C(=O)N[C@@H](C)C(=O)N[C@@H](C)C(=O)N[C@@H](CCCNC(=N)N)C(=O)N[C@@H](CC(=O)O)C(=O)N[C@@H](Cc1ccccc1)C(=O)N[C@H](C(=O)N[C@@H](CC(N)=O)C(=O)N[C@@H](Cc1c[nH]c2ccccc12)C(=O)N[C@@H](CC(C)C)C(=O)N[C@H](C(=O)N[C@@H](CCC(N)=O)C(=O)N[C@H](C(=O)N[C@@H](CCCNC(=N)N)C(=O)N[C@H](C(=O)N[C@H](C(=O)N[C@@H](CC(=O)O)C(=O)O)[C@@H](C)O)[C@@H](C)CC)[C@@H](C)O)[C@@H](C)CC)[C@@H](C)CC` gave a half-life of 2.3 h.
As for `CCCCCCCCCCCC(=O)NCCC(=O)NCCCC[C@H](NC(=O)[C@H](CC(N)=O)NC(=O)[C@H](CC(=O)O)NC(=O)[C@H](CC(C)C)NC(=O)[C@@H](NC(=O)[C@@H](NC(=O)[C@H](CC(N)=O)NC(=O)[C@H](CCSC)NC(=O)[C@H](CCC(=O)O)NC(=O)[C@H](CC(=O)O)NC(=O)[C@H](CO)NC(=O)[C@H](Cc1ccccc1)NC(=O)[C@H](CO)NC(=O)CNC(=O)[C@H](CC(=O)O)NC(=O)[C@H](C)NC(=O)[C@@H](N)Cc1c[nH]cn1)[C@@H](C)O)[C@@H](C)CC)C(=O)N[C@@H](C)C(=O)N[C@@H](C)C(=O)N[C@@H](CCCNC(=N)N)C(=O)N[C@@H](CC(=O)O)C(=O)N[C@@H](Cc1ccccc1)C(=O)N[C@H](C(=O)N[C@@H](CC(N)=O)C(=O)N[C@@H](Cc1c[nH]c2ccccc12)C(=O)N[C@@H](CC(C)C)C(=O)N[C@H](C(=O)N[C@@H](CCC(N)=O)C(=O)N[C@H](C(=O)N[C@@H](CCCNC(=N)N)C(=O)N[C@H](C(=O)N[C@H](C(=O)N[C@@H](CC(=O)O)C(=O)O)[C@@H](C)O)[C@@H](C)CC)[C@@H](C)O)[C@@H](C)CC)[C@@H](C)CC`, the figure is 8.5 h.
`CCCCCCCCCCCCCCCC(=O)N[C@@H](CCC(=O)NCCCC[C@H](NC(=O)[C@H](CC(N)=O)NC(=O)[C@H](CCSC)NC(=O)[C@H](CCC(=O)O)NC(=O)[C@H](CC(=O)O)NC(=O)[C@H](CO)NC(=O)[C@H](Cc1ccccc1)NC(=O)[C@H](CO)NC(=O)CNC(=O)[C@H](CCC(=O)O)NC(=O)[C@H](C)NC(=O)[C@@H](N)Cc1c[nH]cn1)C(=O)N[C@H](C(=O)N[C@@H](CC(C)C)C(=O)N[C@@H](CC(=O)O)C(=O)N[C@@H](CC(N)=O)C(=O)N[C@@H](CC(C)C)C(=O)N[C@@H](C)C(=O)N[C@@H](C)C(=O)N[C@@H](CCCNC(=N)N)C(=O)N[C@@H](CC(=O)O)C(=O)N[C@@H](Cc1ccccc1)C(=O)N[C@H](C(=O)N[C@@H](CC(N)=O)C(=O)N[C@@H](Cc1c[nH]c2ccccc12)C(=O)N[C@@H](CC(C)C)C(=O)N[C@H](C(=O)N[C@@H](CCC(N)=O)C(=O)N[C@H](C(=O)N[C@@H](CCCNC(=N)N)C(=O)N[C@H](C(=O)N[C@H](C(=O)N[C@@H](CCC(=O)O)C(=O)O)[C@@H](C)O)[C@@H](C)CC)[C@@H](C)O)[C@@H](C)CC)[C@@H](C)CC)[C@@H](C)CC)C(=O)O` had a half-life of 29.4 h.
For `CCCCCCCCCCCCCCCC(=O)N[C@@H](CCC(=O)NCCCC[C@H](NC(=O)[C@H](CCSC)NC(=O)[C@H](CCC(=O)O)NC(=O)[C@H](CC(=O)O)NC(=O)[C@H](CO)NC(=O)[C@H](Cc1ccccc1)NC(=O)[C@H](CO)NC(=O)CNC(=O)[C@H](CCC(=O)O)NC(=O)[C@H](C)NC(=O)[C@@H](N)Cc1c[nH]cn1)C(=O)N[C@H](C(=O)N[C@H](C(=O)N[C@@H](CC(C)C)C(=O)N[C@@H](CC(=O)O)C(=O)N[C@@H](CC(N)=O)C(=O)N[C@@H](CC(C)C)C(=O)N[C@@H](C)C(=O)N[C@@H](C)C(=O)N[C@@H](CCCNC(=N)N)C(=O)N[C@@H](CC(=O)O)C(=O)N[C@@H](Cc1ccccc1)C(=O)N[C@H](C(=O)N[C@@H](CC(N)=O)C(=O)N[C@@H](Cc1c[nH]c2ccccc12)C(=O)N[C@@H](CC(C)C)C(=O)N[C@H](C(=O)N[C@@H](CCC(N)=O)C(=O)N[C@H](C(=O)N[C@@H](CCCNC(=N)N)C(=O)N[C@H](C(=O)N[C@H](C(=O)N[C@@H](CCC(=O)O)C(=O)O)[C@@H](C)O)[C@@H](C)CC)[C@@H](C)O)[C@@H](C)CC)[C@@H](C)CC)[C@@H](C)CC)[C@@H](C)O)C(=O)O` the value was 53.1 h.
As for `CCCCCCCCCCCCCC(=O)NCCCC(=O)NCCCC[C@H](NC(=O)[C@H](CC(N)=O)NC(=O)[C@H](CC(=O)O)NC(=O)[C@H](CC(C)C)NC(=O)[C@@H](NC(=O)[C@@H](NC(=O)[C@H](CC(N)=O)NC(=O)[C@H](CCSC)NC(=O)[C@H](CCC(=O)O)NC(=O)[C@H](CC(=O)O)NC(=O)[C@H](CO)NC(=O)[C@H](Cc1ccccc1)NC(=O)[C@H](CO)NC(=O)CNC(=O)[C@H](CC(=O)O)NC(=O)[C@H](C)NC(=O)[C@@H](N)Cc1c[nH]cn1)[C@@H](C)O)[C@@H](C)CC)C(=O)N[C@@H](C)C(=O)N[C@@H](C)C(=O)N[C@@H](CCCNC(=N)N)C(=O)N[C@@H](CC(=O)O)C(=O)N[C@@H](Cc1ccccc1)C(=O)N[C@H](C(=O)N[C@@H](CC(N)=O)C(=O)N[C@@H](Cc1c[nH]c2ccccc12)C(=O)N[C@@H](CC(C)C)C(=O)N[C@H](C(=O)N[C@@H](CCC(N)=O)C(=O)N[C@H](C(=O)N[C@@H](CCCNC(=N)N)C(=O)N[C@H](C(=O)N[C@H](C(=O)N[C@@H](CC(=O)O)C(=O)O)[C@@H](C)O)[C@@H](C)CC)[C@@H](C)O)[C@@H](C)CC)[C@@H](C)CC`, the figure is 4.5 ± 2.4 h; as for `CCCCCCCCCCCCCCCC(=O)NCCCC(=O)NCCCC[C@H](NC(=O)[C@H](CC(N)=O)NC(=O)[C@H](CC(=O)O)NC(=O)[C@H](CC(C)C)NC(=O)[C@@H](NC(=O)[C@@H](NC(=O)[C@H](CC(N)=O)NC(=O)[C@H](CCSC)NC(=O)[C@H](CCC(=O)O)NC(=O)[C@H](CC(=O)O)NC(=O)[C@H](CO)NC(=O)[C@H](Cc1ccccc1)NC(=O)[C@H](CO)NC(=O)CNC(=O)[C@H](CC(=O)O)NC(=O)[C@H](C)NC(=O)[C@@H](N)Cc1c[nH]cn1)[C@@H](C)O)[C@@H](C)CC)C(=O)N[C@@H](C)C(=O)N[C@@H](C)C(=O)N[C@@H](CCCNC(=N)N)C(=O)N[C@@H](CC(=O)O)C(=O)N[C@@H](Cc1ccccc1)C(=O)N[C@H](C(=O)N[C@@H](CC(N)=O)C(=O)N[C@@H](Cc1c[nH]c2ccccc12)C(=O)N[C@@H](CC(C)C)C(=O)N[C@H](C(=O)N[C@@H](CCC(N)=O)C(=O)N[C@H](C(=O)N[C@@H](CCCNC(=N)N)C(=O)N[C@H](C(=O)N[C@H](C(=O)N[C@@H](CC(=O)O)C(=O)O)[C@@H](C)O)[C@@H](C)CC)[C@@H](C)O)[C@@H](C)CC)[C@@H](C)CC`, 3.8 ± 0.6 h; as for `CCCCCCCCCCCCCCCC(=O)N[C@@H](CCC(=O)NCCCC[C@H](NC(=O)[C@H](Cc1ccccc1)NC(=O)[C@H](CO)NC(=O)CNC(=O)[C@H](CCC(=O)O)NC(=O)[C@H](C)NC(=O)[C@@H](N)Cc1c[nH]cn1)C(=O)N[C@@H](CC(=O)O)C(=O)N[C@@H](CCC(=O)O)C(=O)N[C@@H](CCSC)C(=O)N[C@@H](CC(N)=O)C(=O)N[C@H](C(=O)N[C@H](C(=O)N[C@@H](CC(C)C)C(=O)N[C@@H](CC(=O)O)C(=O)N[C@@H](CC(N)=O)C(=O)N[C@@H](CC(C)C)C(=O)N[C@@H](C)C(=O)N[C@@H](C)C(=O)N[C@@H](CCCNC(=N)N)C(=O)N[C@@H](CC(=O)O)C(=O)N[C@@H](Cc1ccccc1)C(=O)N[C@H](C(=O)N[C@@H](CC(N)=O)C(=O)N[C@@H](Cc1c[nH]c2ccccc12)C(=O)N[C@@H](CC(C)C)C(=O)N[C@H](C(=O)N[C@@H](CCC(N)=O)C(=O)N[C@H](C(=O)N[C@@H](CCCNC(=N)N)C(=O)N[C@H](C(=O)N[C@H](C(=O)N[C@@H](CCC(=O)O)C(=O)O)[C@@H](C)O)[C@@H](C)CC)[C@@H](C)O)[C@@H](C)CC)[C@@H](C)CC)[C@@H](C)CC)[C@@H](C)O)C(=O)O`, 280 h.
As for `CCCCCCCCCCCCCCCC(=O)N[C@@H](CCC(=O)NCCCC[C@H](NC(=O)[C@H](CC(N)=O)NC(=O)[C@H](CC(=O)O)NC(=O)[C@H](CC(C)C)NC(=O)[C@@H](NC(=O)[C@@H](NC(=O)[C@H](CC(N)=O)NC(=O)[C@H](CCSC)NC(=O)[C@H](CCC(=O)O)NC(=O)[C@H](CC(=O)O)NC(=O)[C@H](CO)NC(=O)[C@H](Cc1ccccc1)NC(=O)[C@H](CO)NC(=O)CNC(=O)[C@H](CCC(=O)O)NC(=O)[C@H](C)NC(=O)[C@@H](N)Cc1c[nH]cn1)[C@@H](C)O)[C@@H](C)CC)C(=O)N[C@@H](C)C(=O)N[C@@H](C)C(=O)N[C@@H](CCCNC(=N)N)C(=O)N[C@@H](CC(=O)O)C(=O)N[C@@H](Cc1ccccc1)C(=O)N[C@H](C(=O)N[C@@H](CC(N)=O)C(=O)N[C@@H](Cc1c[nH]c2ccccc12)C(=O)N[C@@H](CC(C)C)C(=O)N[C@H](C(=O)N[C@@H](CCC(N)=O)C(=O)N[C@H](C(=O)N[C@@H](CCCNC(=N)N)C(=O)N[C@H](C(=O)N[C@H](C(=O)N[C@@H](CCC(=O)O)C(=O)O)[C@@H](C)O)[C@@H](C)CC)[C@@H](C)O)[C@@H](C)CC)[C@@H](C)CC)C(=O)O`, the figure is 16.2 h.
